From patent US20230117470A1, “SUBSTITUTED PYRAZOLE COMPOUNDS AS TOLL RECEPTOR INHIBITORS” (BRISTOL-MYERS SQUIBB COMPANY, priority 2019, published 2023) come the findings set out here.

Sequences of proteins named here, by UniProt entry; tags and fusion partners are left off. Residues count along the entry.
UniProt Q9NYK1, 27-1049 limits assumed: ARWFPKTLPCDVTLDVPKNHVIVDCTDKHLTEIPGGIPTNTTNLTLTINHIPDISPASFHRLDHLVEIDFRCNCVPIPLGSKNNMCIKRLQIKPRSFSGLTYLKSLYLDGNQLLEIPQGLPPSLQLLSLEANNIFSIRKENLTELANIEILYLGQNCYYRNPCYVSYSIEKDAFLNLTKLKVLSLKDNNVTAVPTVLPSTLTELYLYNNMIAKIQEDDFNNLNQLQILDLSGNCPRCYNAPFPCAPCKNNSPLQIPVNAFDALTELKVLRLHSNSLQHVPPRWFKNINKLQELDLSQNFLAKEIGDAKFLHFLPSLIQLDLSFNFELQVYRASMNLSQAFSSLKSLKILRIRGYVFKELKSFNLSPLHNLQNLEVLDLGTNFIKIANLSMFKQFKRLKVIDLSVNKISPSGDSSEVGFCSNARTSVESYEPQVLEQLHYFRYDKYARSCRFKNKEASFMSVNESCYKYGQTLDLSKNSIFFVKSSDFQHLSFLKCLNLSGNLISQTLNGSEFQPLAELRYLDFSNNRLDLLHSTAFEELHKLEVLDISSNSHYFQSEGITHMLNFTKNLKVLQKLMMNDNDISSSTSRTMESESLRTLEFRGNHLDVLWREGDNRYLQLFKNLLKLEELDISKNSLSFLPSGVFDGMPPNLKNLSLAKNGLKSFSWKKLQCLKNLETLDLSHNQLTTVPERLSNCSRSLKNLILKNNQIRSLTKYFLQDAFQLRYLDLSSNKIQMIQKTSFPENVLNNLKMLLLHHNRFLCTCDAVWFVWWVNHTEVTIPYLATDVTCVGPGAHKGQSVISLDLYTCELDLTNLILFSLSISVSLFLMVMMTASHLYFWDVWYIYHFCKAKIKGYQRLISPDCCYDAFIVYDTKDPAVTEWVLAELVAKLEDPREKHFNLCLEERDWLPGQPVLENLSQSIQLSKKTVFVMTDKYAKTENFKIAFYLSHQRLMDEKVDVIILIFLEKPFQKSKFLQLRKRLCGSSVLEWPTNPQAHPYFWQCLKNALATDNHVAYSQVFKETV
UniProt Q9NR96, 26-1032 limits assumed: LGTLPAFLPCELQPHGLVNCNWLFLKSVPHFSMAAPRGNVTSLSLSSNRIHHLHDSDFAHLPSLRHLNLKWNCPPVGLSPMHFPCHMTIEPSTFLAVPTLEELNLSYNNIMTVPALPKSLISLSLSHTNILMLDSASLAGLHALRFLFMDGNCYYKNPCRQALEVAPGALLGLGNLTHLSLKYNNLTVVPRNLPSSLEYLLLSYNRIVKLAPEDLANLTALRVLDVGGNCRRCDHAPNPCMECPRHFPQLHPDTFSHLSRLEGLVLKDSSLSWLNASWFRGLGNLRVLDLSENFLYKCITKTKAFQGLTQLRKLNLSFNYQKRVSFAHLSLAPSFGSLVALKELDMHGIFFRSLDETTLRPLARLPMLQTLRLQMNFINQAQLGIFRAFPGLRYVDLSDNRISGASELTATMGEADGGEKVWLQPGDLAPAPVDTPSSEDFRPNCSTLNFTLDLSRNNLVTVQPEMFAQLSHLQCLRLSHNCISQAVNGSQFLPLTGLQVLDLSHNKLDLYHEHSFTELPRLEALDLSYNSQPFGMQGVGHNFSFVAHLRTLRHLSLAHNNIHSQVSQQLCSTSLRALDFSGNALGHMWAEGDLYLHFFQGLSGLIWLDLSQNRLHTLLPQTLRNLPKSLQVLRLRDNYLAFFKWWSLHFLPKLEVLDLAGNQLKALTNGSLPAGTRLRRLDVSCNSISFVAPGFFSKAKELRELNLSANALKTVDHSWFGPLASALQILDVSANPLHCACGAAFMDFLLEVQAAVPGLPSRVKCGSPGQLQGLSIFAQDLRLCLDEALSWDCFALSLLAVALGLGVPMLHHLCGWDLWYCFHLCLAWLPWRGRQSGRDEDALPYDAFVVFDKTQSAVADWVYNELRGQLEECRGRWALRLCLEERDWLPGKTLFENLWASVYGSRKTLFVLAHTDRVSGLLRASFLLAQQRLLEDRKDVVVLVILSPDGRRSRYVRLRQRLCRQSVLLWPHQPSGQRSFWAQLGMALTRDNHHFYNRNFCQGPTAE
UniProt Q9NR97, 27-1041 limits assumed: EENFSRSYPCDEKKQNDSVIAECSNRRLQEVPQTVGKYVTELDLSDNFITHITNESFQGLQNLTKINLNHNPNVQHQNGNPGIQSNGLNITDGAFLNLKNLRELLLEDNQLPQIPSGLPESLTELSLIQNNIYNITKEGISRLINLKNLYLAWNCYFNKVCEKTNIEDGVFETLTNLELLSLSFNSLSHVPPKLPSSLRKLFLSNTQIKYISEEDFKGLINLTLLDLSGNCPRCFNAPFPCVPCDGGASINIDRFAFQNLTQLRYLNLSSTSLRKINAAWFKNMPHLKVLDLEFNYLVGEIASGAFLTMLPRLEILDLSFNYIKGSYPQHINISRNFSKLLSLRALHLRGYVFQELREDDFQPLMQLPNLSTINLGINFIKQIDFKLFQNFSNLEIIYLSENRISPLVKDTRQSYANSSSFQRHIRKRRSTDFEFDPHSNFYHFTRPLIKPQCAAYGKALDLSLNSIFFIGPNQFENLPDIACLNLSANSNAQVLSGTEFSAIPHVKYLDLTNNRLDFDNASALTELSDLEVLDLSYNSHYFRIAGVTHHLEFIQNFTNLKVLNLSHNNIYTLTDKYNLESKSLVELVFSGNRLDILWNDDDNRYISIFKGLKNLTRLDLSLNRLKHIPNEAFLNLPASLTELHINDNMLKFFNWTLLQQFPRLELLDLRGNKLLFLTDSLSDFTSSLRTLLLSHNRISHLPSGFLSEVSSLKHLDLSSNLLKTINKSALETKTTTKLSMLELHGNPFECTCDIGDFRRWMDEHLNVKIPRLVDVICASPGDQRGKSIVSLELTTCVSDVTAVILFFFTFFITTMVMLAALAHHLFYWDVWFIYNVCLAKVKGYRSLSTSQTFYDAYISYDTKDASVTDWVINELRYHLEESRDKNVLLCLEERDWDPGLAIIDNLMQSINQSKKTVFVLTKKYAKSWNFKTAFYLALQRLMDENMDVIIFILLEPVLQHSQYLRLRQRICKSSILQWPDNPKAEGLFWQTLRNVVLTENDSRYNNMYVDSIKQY

In general, IC50 refers to the concentration that inhibits the measured activity by half.

One assay addresses human TLR7 (Homo sapiens, UniProt Q9NYK1). The experiment in a line: TLR7 inhibition reporter assay (HEK-Blue cells, SEAP reporter, gardiquimod stimulation). The conditions noted are these: read-out: TLR7 IC50; HEK-Blue cells overexpressing human TLR7, SEAP reporter, gardiquimod 7.5 μM. As to the method: (§1) TLR7/8/9 Inhibition Reporter Assays
(§2) HEK-Blue™-cells (Invivogen) overexpressing human TLR7, TLR8 or TLR9 receptors were used for screening inhibitors of these receptors using an inducible SEAP (secreted embryonic alkaline phosphatase) reporter gene under the control of the IFN-β minimal promoter fused to five NF-κB and AP-1-binding sites. Briefly, cells are seeded into Greiner 384 well plates (15000 cells per well for TLR7, 20,000 for TLR8 and 25,000 for TLR9) and then treated with test compounds in DMSO to yield a final dose response concentration range of 0.05 nM-50 μM. After a 30 minute compound pre-treatment at room temperature, the cells are then stimulated with a TLR7 ligand (gardiquimod at a final concentration of 7.5 μM), TLR8 ligand (R848 at a final concentration of 15.9 μM) or TLR9 ligand (ODN2006 at a final concentration of 5 nM) to activate NF-κB and AP-1 which induce the production of SLA After a 22 hour incubation at 37° C., […], SEAP levels are determined with the addition of HEK-Blue™ Detection reagent (Invivogen), a cell culture medium that allows for detection of SLAP, according to manufacturer's specifications. The percent inhibition is determined as the % reduction in the HEK-Blue signal present in wells treated with agonist plus DMSO alone compared to wells treated with a known inhibitor.

In another assay the target is human TLR9 (Homo sapiens, UniProt Q9NR96). The experiment in a line: TLR9 inhibition reporter assay (HEK-Blue cells, SEAP reporter, ODN2006 stimulation). The conditions noted are these: read-out: TLR9 IC50; HEK-Blue cells overexpressing human TLR9, SEAP reporter, ODN2006 5 nM. The procedure: as §1, §2
(In general: In a reporter assay the amount or activity of a reporter protein is the signal.)

A further assay deals with human TLR8 (Homo sapiens, UniProt Q9NR97). The experiment in a line: TLR8 inhibition reporter assay (HEK-Blue cells, SEAP reporter, R848 stimulation). The conditions noted are these: read-out: TLR8 IC50; HEK-Blue cells overexpressing human TLR8, SEAP reporter, R848 15.9 μM. The procedure:
as §1, §2

In the case of `Cc1cc(-c2c(C(C)C)c(C(=O)NC3CCN(C(C)C)CC3)nn2C)cn2ncnc12` [Example 188, 4-isopropyl-N-(1-isopropylpiperidin-4-yl)-1-methyl-5-(8-methyl-[1,2,4]triazolo[1,5-a]pyridin-6-yl)-1H-pyrazole-3-carboxamide], the IC50 at human TLR7 turned out to be 3.35 nM; at human TLR9, 10000 nM; on human TLR8 it was 5.18 nM.

As for `COCCN1CCC(c2ccc(-c3n[nH]c(-c4cc(OC)c5ncnn5c4)c3C(C)C)nc2)CC1`, the IC50 at human TLR7 was 7.89 nM; on human TLR9, 4500 nM; on human TLR8, 6.75 nM.

As to `Cc1cc(-c2[nH]nc(C(=O)NC3CCN(CCS(C)(=O)=O)CC3)c2C(C)C)cn2ncnc12`, the IC50 turned out to be 2.84 nM on human TLR7, 14800 nM at human TLR9 and 1.22 nM at human TLR8.
